Assay [1] concerns the target T1, BRD9 (Homo sapiens, UniProt Q9H8M2). The experiment in a line: Degradation of BRD9 (IF), immunofluorescence in MV4-11 cells, 24 hours (Assay Protocol 2). The protocol:
Assay Protocol 2—Degradation of BRD9 (IF)
A suspension of MV4-11 cells (ATCC CRL-9591) was prepared in phenol red-free assay media (IMDM Thermo Scientific 21056023+10% FBS ATCC 302025) and cells were seeded at 20,000 cells per well (45 μL) in sterile black poly-d-lysine coated 384 well plates (Greiner 781948). Compounds were prepared at 1000× final concentration in DMSO, diluted 1:100 in assay media, and 5 μL compound was added to each well of the cell plate. Cells were incubated for 24 hours at 37° C. with 5% CO2. All the following incubations for immunofluorescence staining were at room temperature. 15 μL of 16% PFA was added to each well (3.7% final concentration) and the cells were fixed for 15 min then washed twice with DPBS. Cells were permeabilised with 0.1% Triton X-100 for 10 min, Triton X-100 was removed, then blocked with 1% BSA in DPBS for 1 hour. Cells were stained with 25 μL anti-BRD9 E4Q3F antibody (CST 48306) diluted 1:25600 in 1% BSA in DPBS for 2-3 hours. Wels were washed twice with DPBS then incubated with 25 μL of 1% BSA containing a 1:1000 dilution of Anti-rabbit Alexa Fluor™ 647 secondary antibody (Thero Scientific A21244) and 1 μg/mL Hoechst nuclear counter stain (Abcam ab228551) for 1 hour. Wells were washed twice with DPBS prior to imaging on a Perkin Elmer Operetta CLS with 10× air lens. Images were processed using Harmony High-Content Imaging and Analysis Software (Perkin Elmer) and the mean contrast ratio of Alexa Fluor™ 647 in central nuclei was used to quantify BRD9 protein levels. Data was further analysed using Dotmatics software and % BRD9 remaining was calculated by normalisation to average data from high and low control wells (cells treated with DMSO or 100 nM CFT-8634 respectively).

By UniProt entry, the sequences of proteins in these tests, tags left out.
UniProt Q9H8M2, whole entry: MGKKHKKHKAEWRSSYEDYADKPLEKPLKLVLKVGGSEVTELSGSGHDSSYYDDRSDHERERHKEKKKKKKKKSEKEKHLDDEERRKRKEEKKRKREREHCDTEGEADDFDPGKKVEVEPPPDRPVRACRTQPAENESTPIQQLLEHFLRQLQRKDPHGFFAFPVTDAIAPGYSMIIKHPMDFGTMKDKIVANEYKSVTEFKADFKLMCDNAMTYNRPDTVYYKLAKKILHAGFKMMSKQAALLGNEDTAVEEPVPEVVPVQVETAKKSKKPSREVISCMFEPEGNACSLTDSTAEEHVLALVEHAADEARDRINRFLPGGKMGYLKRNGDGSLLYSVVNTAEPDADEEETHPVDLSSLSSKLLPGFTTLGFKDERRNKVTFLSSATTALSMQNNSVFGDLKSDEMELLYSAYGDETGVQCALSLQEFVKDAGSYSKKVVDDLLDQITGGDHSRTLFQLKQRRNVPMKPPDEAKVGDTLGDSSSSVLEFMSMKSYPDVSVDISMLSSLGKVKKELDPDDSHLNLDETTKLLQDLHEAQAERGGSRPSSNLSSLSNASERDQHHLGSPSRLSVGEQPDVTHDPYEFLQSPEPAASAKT

In assay [2] the target is T1, BRD9. The experiment in a line: BRD9 degradation, HiBiT-BRD9 KI HEK293 (LgBiT) cells, NanoGlo Lytic Endpoint assay (Assay Protocol 1). On the procedure: HiBiT-BRD9 KI HEK293 (LgBiT) Cells (Promega CS3023412) were seeded at 8000 cells per well (38 μL) in sterile white bottom 384 well plates (Invitrogen 164610 or Greiner 781080) and incubated overnight at 37° C. with 5% CO2. The next day, compounds were prepared at 1000× final concentration in DMSO and diluted 1:100 in media (DMEM PAN Biotech P04-03550+10% FBS ATCC 302025). 4 μL compound was added to each well of the cell plate and incubated for 6 h at 37° C. with 5% CO2 BRD9 expression was quantified using the NanoGlo Lytic Endpoint assay (Promega N3050). The lytic buffer was equilibrated to room temperature for 10-15 min before lytic reagent was prepared by adding substrate (1:50) and LgBit protein (1:100) in lytic buffer. 40 μL lytic reagent mix was added to each well of the cel plate and plates were centrifuged briefly at ˜50g. Plates were incubated with shaking (350 RPM) for 12-24 min before reading using the LUM plus module of a BMG Pherastar FSX. Data was analysed using Dotmatics software and % BRD9 remaining was calculated by normalisation to average data from high and low control wells (DMSO treated cels and no cells respectively).

These results are taken from patent publication US20260092061A1, “COMPOUNDS FOR TARGETED PROTEIN DEGRADATION” (Amphista Therapeutics Limited, priority 2022, published 2026).

The structures appear in SMILES notation. Bounds are passed on as bounds.

For `COc1cc(-c2cn(C)c(=O)c(C)c2C)cc(OC)c1CN1CCCN(Cc2cccc3c2CCN(C(=O)C(C#N)=CC(C)(C)CF)C3C(C)C)CC1` (single isomer, unassigned), in assay [1], the 50% degradation concentration (DC50) is 25 to 1000 nM; the Dmax entry was “+ (+ = >40% and <70%)”.
For `COc1cc(-c2cn(C)c(=O)c(C)c2C)cc(OC)c1CN1CC2CC(C1)N2Cc1cccc(C2CCCN2C(=O)C(C#N)=CC(C)(C)C)c1` (stereo not drawn), in assay [1], the DC50 is less than 1.25 nM and the Dmax entry was “+++ (+++ = ≥75%)”. For the same compound, in assay [2], the DC50 lay in the range of 1.25 to 10 nM and the Dmax result is “+++ (+++ = ≥75%)”.

Usually DC50 stands for the midpoint of the concentration-degradation curve. A low value points to degradation at low concentration.
